1 substance from PMC4786016 (Environmental science & technology, 2015) can be followed below.

By UniProt entry, the sequences of proteins in these tests, tags left out. Where a name states a change or a piece, a line headed by the entry shows the natural chain unless it says otherwise.
UniProt P37231: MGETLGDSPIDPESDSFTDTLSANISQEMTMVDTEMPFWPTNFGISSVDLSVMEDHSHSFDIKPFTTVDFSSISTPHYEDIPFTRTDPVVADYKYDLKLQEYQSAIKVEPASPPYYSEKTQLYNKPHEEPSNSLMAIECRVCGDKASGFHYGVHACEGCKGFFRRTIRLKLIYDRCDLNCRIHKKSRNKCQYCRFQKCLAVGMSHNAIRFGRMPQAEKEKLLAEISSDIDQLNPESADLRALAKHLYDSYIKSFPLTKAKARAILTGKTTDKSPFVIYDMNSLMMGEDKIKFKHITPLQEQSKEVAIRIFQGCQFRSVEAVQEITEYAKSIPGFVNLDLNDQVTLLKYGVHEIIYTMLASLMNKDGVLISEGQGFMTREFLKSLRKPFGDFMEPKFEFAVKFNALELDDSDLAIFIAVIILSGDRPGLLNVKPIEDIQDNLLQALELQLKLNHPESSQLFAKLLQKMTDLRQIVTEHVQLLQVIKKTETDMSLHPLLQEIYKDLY

The target in the series is human PPARγ1 (Homo sapiens, UniProt P37231).

tri(2-butoxyethanol) phosphate [TBOEP] displayed a no observed adverse effect level (NOAEL) of 3.6 µM.
